This note sets out measurements from patent US20130123222A1, “Synergistic Anti-Cancer Activity of SR16388 with Anti-Mitotic Drugs” (SRI INTERNATIONAL, INC., priority 2011, published 2013).

In this assay the test system is panel of 48 to 60 cell lines. Description: 5×4 combination screen with SR16388; synergism hit rate by algorithm (Z score). It is filed as cell-based. Conditions: in combination with SR16388, all 20 (5×4) dose combinations. As for the experimental part:
SR16388 was synthesized in house.
5) A “combination score” was assigned to each specific combination (Ca1b1x): C=1 if Za1b1x>3*SD and C=0 if Za1b1x≦3*SD score);
6) Hit rate of each combination was calculated by comparing the sum of the combination scores of all 20 (5×4) dose combinations with all cell lines to the total number of data points of that specific combination;
7) Hit rate were ranked from high to low to identify potential synergistic combinations.

Take `CC(=O)O[C@H]1C(=O)[C@@]2(C)[C@H]([C@H](OC(=O)c3ccccc3)[C@]3(O)C[C@H](OC(=O)[C@H](O)[C@@H](NC(=O)c4ccccc4)c4ccccc4)C(C)=C1C3(C)C)[C@]1(OC(C)=O)CO[C@@H]1C[C@@H]2O` [Paclitaxel]: the “% hit/combo” value is given as 2.25%.
